Drawing on patent publication US6642227B2, “Inhibitors of c-Jun N-terminal kinases (JNK) and other protein kinases” (Vertex Pharmaceuticals Incorporated, priority 2001, dated 2003), this text covers Ki for 56 molecules.

Protein sequences, listed by entry. Tags and fused reporters are not part of them.
UniProt P06239, whole entry: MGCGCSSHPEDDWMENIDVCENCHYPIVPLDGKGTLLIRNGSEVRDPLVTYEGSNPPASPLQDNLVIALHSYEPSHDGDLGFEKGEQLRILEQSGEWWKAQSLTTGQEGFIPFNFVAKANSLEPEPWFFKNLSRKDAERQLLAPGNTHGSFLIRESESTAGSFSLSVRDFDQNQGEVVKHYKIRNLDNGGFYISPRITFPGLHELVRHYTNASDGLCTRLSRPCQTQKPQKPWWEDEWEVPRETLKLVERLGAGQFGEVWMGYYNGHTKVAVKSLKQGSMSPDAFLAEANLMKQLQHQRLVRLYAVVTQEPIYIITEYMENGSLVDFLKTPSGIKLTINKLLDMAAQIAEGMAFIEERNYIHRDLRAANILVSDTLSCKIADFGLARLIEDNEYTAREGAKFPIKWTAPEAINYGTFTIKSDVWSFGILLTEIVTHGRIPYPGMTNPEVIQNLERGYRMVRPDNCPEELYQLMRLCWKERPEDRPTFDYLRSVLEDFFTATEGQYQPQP

Molecules are shown by their SMILES.

For this experiment, the target named is human Lck kinase (UniProt P06239). Put plainly: Lck inhibition assay (A: radioactivity-based or B: spectrophotometric coupled-enzyme assay). To be noted: read-out: Lck Activity (Ki rating). Here is the method: The compounds were evaluated as inhibitors of human Lck kinase using either a radioactivity-based assay or spectrophotometric assay.
The compounds were assayed as inhibitors of full length bovine thymus Lck kinase (from Upstate Biotechnology, cat. no. 14-106) expressed and purified from baculo viral cells. Lck kinase activity was monitored by following the incorporation of ^33p from ATP into the tyrosine of a random poly Glu-Tyr polymer substrate of composition, Glu:Tyr=4:1 (Sigma, cat. no. P-0275). The following were the final concentrations of the assay components: 0.025 M HEPES, pH 7.6, 10 mM MgCl2, 2 mM DTT, 0.25 mg/ml BSA, 10 μM ATP (1-2 μCi ^33P-ATP per reaction), 5 mg/ml poly Glu-Tyr, and 1-2 units of recombinant human […] kinase. In a typical assay, all the reaction components with the exception of ATP were pre-mixed and aliquoted into assay plate wells. Inhibitors dissolved in DMSO were added to the wells to give a final DMSO concentration of 2.5%. The assay plate was incubated at 30 C. for 10 min before initiating the reaction with ^33P-ATP. After 20 min of reaction, the reactions were quenched with 150 μl of 10% trichloroacetic acid (TCA) containing 20 mM Na3PO4. The quenched samples were then transferred to a 96-well filter plate (Whatman, UNI-Filter GF/F Glass Fiber Filter, cat no. 7700-3310) installed on a filter plate vacuum manifold. Filter plates were washed four times with 10% TCA containing 20 mM Na3PO4 and then 4 times with methanol. 200 μl of scintillation fluid was then added to each well. The plates were sealed and the amount of radioactivity associated with the filters was quantified on a TopCount scintillation counter. The radioactivity incorporated was plotted as a function of the inhibitor concentration. The data was fitted to a competitive inhibition kinetics model to get the Ki for the compound.
The ADP produced from ATP by the human recombinant Lck kinase-catalyzed phosphorylation of poly Glu-Tyr substrate was quanitified using a coupled enzyme assay (Fox et al (1998) Protein Sci 7, 2249). In this assay one molecule of NADH is oxidised to NAD for every molecule of ADP produced in the kinase reaction. The disappearance of NADH can be conveniently followed at 340 nm.
The following were the final concentrations of the assay components: 0.025 M HEPES, pH 7.6, 10 mM MgCl2, 2 mM DTT, 5 mg/ml poly Glu-Tyr, and 50 nM of recombinant human Lck kinase. Final concentrations of the components of the coupled enzyme system were 2.5 mM phosphoenolpyruvate, 200 μM NADH, 30 μg/ml pyruvate kinase and 10 μg/ml lactate dehydrogenase.
In a typical assay, all the reaction components with the exception of ATP were pre-mixed and aliquoted into assay plate wells. Inhibitors dissolved in DMSO were added to the wells to give a final DMSO concentration of 2.5%. The assay plate was incubated at 30° C. for 10 min before initiating the reaction with 150 μM ATP. The absorbance change at 340 nm with time, the rate of the reaction, was monitored on a molecular devices plate reader. The data of rate as a function of the inhibitor concentration was fitted to competitive inhibition kinetics model to get the Ki for the compound.
With `COc1cc(Nc2ncc(C)c(-c3sc(SC)c(C#N)c3-c3cccnc3)n2)cc(OC)c1`, the Ki was under 0.1 µM.
In the case of `CCNc1sc(-c2ccnc(Nc3cccc(O)c3)n2)c(-c2ccccc2)c1C#N`, the Ki was under 0.1 µM.
Turning to `CSc1sc(-c2ccnc(Nc3ccccc3)n2)c(C2CCCCC2)c1C#N`, the Ki is under 0.1 µM.
For the molecule `CSc1sc(-c2ccnc(Nc3cccc(OCc4ccccc4)c3)n2)c(-c2cccnc2)c1C#N`, the Ki was over 1 µM.
Turning to `N#Cc1c(NCCN2CCOCC2)sc(-c2ccnc(Nc3cccc(S(N)(=O)=O)c3)n2)c1-c1ccccc1`, the Ki was under 0.1 µM.
`CN(C)c1sc(-c2ccnc(Nc3cccc(N)c3)n2)c(-c2cccc(Oc3ccccc3)c2)c1C#N`: the inhibitory constant (Ki) was under 0.1 µM.
As for `CN(C)c1sc(-c2ccnc(Nc3cccc(O)c3)n2)c(-c2cncc(-c3ccccc3)c2)c1C#N`, the figure is over 1 µM; as for `CSc1sc(-c2ccnc(Nc3cccc(OCc4ccccc4)c3)n2)c(C2CCCCC2)c1C#N`, under 0.1 µM; as for `CCOc1sc(-c2ccnc(Nc3ccccc3)n2)c(-c2ccccc2)c1C#N`, under 0.1 µM.
Regarding `CCOC(=O)c1ccc(Nc2nccc(-c3sc(SC)c(C#N)c3C3CCCCC3)n2)cc1`, the inhibitory constant (Ki) fell in the range of 0.1 to 1 µM.
`N#Cc1c(NCCN2CCOCC2)sc(-c2ccnc(Nc3cccc(O)c3)n2)c1-c1ccccc1`: the Ki is under 0.1 µM.
For `CSc1sc(-c2nc(Nc3cccc(O)c3)ncc2C)c(-c2ccc(C)cc2)c1C#N`, the inhibition constant Ki is under 0.1 µM.
As for `CSc1sc(-c2ccnc(Nc3cccc(OCc4ccccc4)c3)n2)c(-c2cncc(-c3ccccc3)c2)c1C#N`, the figure is over 1 µM; as for `CSc1sc(-c2nc(Nc3cccc(OCc4ccccc4)c3)ncc2C)c(-c2ccco2)c1C#N`, under 0.1 µM.
For `COC(=O)c1cccc(Nc2ncc(C)c(-c3sc(SC)c(C#N)c3-c3cccnc3)n2)c1`, the Ki is under 0.1 µM.
Consider `CN(C)c1sc(-c2ccnc(Nc3cccc(OCc4ccccc4)c3)n2)c(-c2cncc(-c3ccccc3)c2)c1C#N`, for which the inhibition constant Ki is over 1 µM.
Turning to `CSc1sc(-c2nc(NCc3ccccc3)ncc2C)c(-c2cccnc2)c1C#N`, the inhibitory constant (Ki) was over 1 µM.
With `CSc1sc(-c2nc(Nc3ccccc3)ncc2C)c(-c2cccnc2)c1C#N`, the inhibition constant (Ki) is 0.1 to 1 µM.
Consider `Cc1ccc(-c2c(-c3ccnc(Nc4ccccc4)n3)sc(O)c2C#N)cc1`, for which the Ki was under 0.1 µM.
On to `CSc1sc(-c2nc(Nc3cccc([N+](=O)[O-])c3)ncc2C)c(-c2ccco2)c1C#N`, for which the inhibition constant Ki is under 0.1 µM.
In the case of `Cc1cnc(Nc2cccc(OCc3ccccc3)c2)nc1-c1sc(O)c(C#N)c1-c1ccccc1`, the Ki was under 0.1 µM.
Next, `CSc1sc(-c2ccnc(Nc3cccc(S(N)(=O)=O)c3)n2)c(-c2cccnc2)c1C#N`: under 0.1 µM; `CCOC(=O)c1c(SC)sc(-c2ccnc(Nc3ccccc3)n2)c1-c1ccccc1`: over 1 µM.
For the molecule `CN(C)c1sc(-c2ccnc(Nc3cccc([N+](=O)[O-])c3)n2)c(-c2cccc(OCc3ccccc3)c2)c1C#N`, the Ki was over 1 µM.
For `CSc1sc(-c2ccnc(Nc3cccc(O)c3)n2)c(-c2cccc(OCc3ccccc3)c2)c1C#N`, the inhibitory constant (Ki) lay within 0.1 to 1 µM.
Consider `CSc1sc(-c2nc(Nc3cccnc3)ncc2C)c(-c2ccc(C)cc2)c1C#N`, for which the Ki was 0.1 to 1 µM.
Turning to `CSc1sc(-c2nc(Nc3cccc(OCc4ccccc4)c3)ncc2C)c(-c2ccc(C)cc2)c1C#N`, the Ki was in the range of 0.1 to 1 µM.
Regarding `CCOC(=O)c1c(SC)sc(-c2ccnc(Nc3cccc(O)c3)n2)c1-c1ccccc1`, the Ki lay within 0.1 to 1 µM.
In the case of `CSc1sc(-c2ccnc(Nc3cccc(OCc4ccccc4)c3)n2)c(-c2cncc(Br)c2)c1C#N`, the Ki was over 1 µM.
Take `CSc1sc(-c2ccnc(Nc3cccc(O)c3)n2)c(-c2cncc(-c3ccccc3)c2)c1C#N`: the inhibitory constant (Ki) was over 1 µM.
For `CC1CCN(c2sc(-c3ccnc(Nc4ccccc4)n3)c(-c3cccc(Oc4ccccc4)c3)c2C#N)CC1`, the inhibition constant (Ki) is under 0.1 µM.
Turning to `Cc1cnc(Nc2ccccc2)nc1-c1sc(SCc2ccc(O)cc2)c(C#N)c1-c1cccc(Cl)c1` [Compound V-1, 4-(3-chloro-phenyl)-2-(4-hydroxy-benzylsulfanyl)-5-(5-methyl-2-phenylamino-pyrimidin-4-yl)-thiophene-3-carbonitrile], the inhibitory constant (Ki) was under 0.1 µM.
As for `CSc1sc(-c2ccnc(Nc3ccccc3)n2)c(-c2cccc(OCc3ccccc3)c2)c1C#N`, the figure is over 1 µM; as for `CN(C)c1sc(-c2ccnc(Nc3ccccc3)n2)c(-c2cccc(OCc3ccccc3)c2)c1C#N`, over 1 µM; as for `CSc1sc(-c2nc(Nc3cccc(O)c3)ncc2C)c(-c2ccccc2)c1C#N`, under 0.1 µM.
On to `CSc1sc(-c2ccnc(Nc3cccc([N+](=O)[O-])c3)n2)c(-c2cccc(OCc3ccccc3)c2)c1C#N`, for which the inhibition constant (Ki) was over 1 µM.
Turning to `CSc1sc(-c2nc(Nc3cccc(O)c3)ncc2C)c(-c2ccccc2C(F)(F)F)c1C#N`, the Ki is under 0.1 µM.
With `CSc1sc(-c2nc(Nc3cccc(O)c3)ncc2C)c(-c2cccc(-c3ccccc3)c2)c1C#N`, the inhibition constant Ki was under 0.1 µM.
As for `COc1cccc(Nc2ncc(C)c(-c3sc(SC)c(C#N)c3-c3cccnc3)n2)c1`, the figure is 0.1 to 1 µM; as for `CSc1sc(-c2ccnc(Nc3cccc(N)c3)n2)c(-c2cccc(Br)c2)c1C#N`, under 0.1 µM.
Next, `CSc1sc(-c2ccnc(Nc3cccc(N)c3)n2)c(-c2cccc(Oc3ccccc3)c2)c1C#N`: under 0.1 µM; `CSc1sc(-c2ccnc(Nc3ccc(OCc4ccccc4)cc3)n2)c(-c2ccccc2)c1C#N`: over 1 µM; `CN(C)c1sc(-c2ccnc(Nc3cccc(OCc4ccccc4)c3)n2)c(-c2cncc(Br)c2)c1C#N`: under 0.1 µM.
Turning to `CCNc1sc(-c2ccnc(Nc3ccc(O)cc3)n2)c(-c2ccccc2)c1C#N`, the inhibition constant Ki was under 0.1 µM.
For `CSc1sc(-c2nc(Nc3cccc(O)c3)ncc2C)c(-c2ccco2)c1C#N`, the inhibition constant Ki is under 0.1 µM.
With `N#Cc1c(NCCN2CCOCC2)sc(-c2ccnc(Nc3ccc(O)cc3)n2)c1-c1ccccc1`, the Ki is under 0.1 µM.
`CSc1sc(-c2ccnc(Nc3cccc(O)c3)n2)c(-c2cccc(-c3ccccc3O)c2)c1C#N`: the Ki was under 0.1 µM.
With `CSc1sc(-c2ccnc(Nc3cccc([N+](=O)[O-])c3)n2)c(-c2cccc(O)c2)c1C#N`, the inhibition constant (Ki) was under 0.1 µM.
Take `CSc1sc(-c2ccnc(Nc3cccc(O)c3)n2)c(-c2cccc(O)c2)c1C#N`: the Ki was under 0.1 µM.
As for `CSc1sc(-c2nc(Nc3ccc(Cl)nc3)ncc2C)c(-c2cccnc2)c1C#N`, the figure is over 1 µM; as for `CSc1sc(-c2nc(Nc3cccnc3)ncc2C)c(-c2ccco2)c1C#N`, under 0.1 µM.
For the molecule `CSc1sc(-c2ccnc(Nc3cccc(O)c3)n2)c(-c2cccc(Oc3ccccc3)c2)c1C#N`, the inhibition constant (Ki) was under 0.1 µM.
As for `CSc1sc(-c2nc(Nc3cccc(Br)c3)ncc2C)c(-c2cccnc2)c1C#N`, the Ki is under 0.1 µM.
For the molecule `CSc1sc(-c2ccnc(Nc3cccc(O)c3)n2)c(-c2cccnc2)c1C#N`, the Ki was under 0.1 µM.
Turning to `CSc1sc(-c2nc(Nc3cccc(OCc4ccccc4)c3)ncc2C)c(-c2cccc(-c3ccccc3)c2)c1C#N`, the Ki was over 1 µM.
As for `CCOc1sc(-c2nc(Nc3cccc(OCc4ccccc4)c3)ncc2C)c(-c2ccccc2)c1C#N`, the inhibition constant Ki was under 0.1 µM.

One may read the Ki as a dissociation constant, usually derived from enzyme kinetics or from competition with a known ligand.
